Data on one substance can be found in paper PMC3336786 (The FASEB Journal, 2012).

Sequences of proteins named here, by UniProt entry; tags and fusion partners are left off. A change or cut given only in a name is not applied to a line headed by its entry. Residues count along the entry.
UniProt P18507, 40-475: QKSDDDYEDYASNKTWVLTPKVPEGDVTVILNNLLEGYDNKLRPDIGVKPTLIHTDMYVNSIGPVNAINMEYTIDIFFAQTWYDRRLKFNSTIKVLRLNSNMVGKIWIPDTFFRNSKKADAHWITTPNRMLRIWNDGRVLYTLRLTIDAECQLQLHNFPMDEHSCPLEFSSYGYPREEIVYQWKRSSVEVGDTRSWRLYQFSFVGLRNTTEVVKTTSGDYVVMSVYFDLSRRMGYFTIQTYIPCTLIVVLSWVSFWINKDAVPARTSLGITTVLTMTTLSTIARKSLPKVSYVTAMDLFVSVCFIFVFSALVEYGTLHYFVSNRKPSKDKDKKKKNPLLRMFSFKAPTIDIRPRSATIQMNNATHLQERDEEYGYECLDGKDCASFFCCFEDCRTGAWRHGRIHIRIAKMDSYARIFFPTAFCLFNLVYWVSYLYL

Holding throughout (type): cell-based
The target in one assay is T1, RDL (Drosophila melanogaster, UniProt P25123).
T1 sequence (P25123 45-606): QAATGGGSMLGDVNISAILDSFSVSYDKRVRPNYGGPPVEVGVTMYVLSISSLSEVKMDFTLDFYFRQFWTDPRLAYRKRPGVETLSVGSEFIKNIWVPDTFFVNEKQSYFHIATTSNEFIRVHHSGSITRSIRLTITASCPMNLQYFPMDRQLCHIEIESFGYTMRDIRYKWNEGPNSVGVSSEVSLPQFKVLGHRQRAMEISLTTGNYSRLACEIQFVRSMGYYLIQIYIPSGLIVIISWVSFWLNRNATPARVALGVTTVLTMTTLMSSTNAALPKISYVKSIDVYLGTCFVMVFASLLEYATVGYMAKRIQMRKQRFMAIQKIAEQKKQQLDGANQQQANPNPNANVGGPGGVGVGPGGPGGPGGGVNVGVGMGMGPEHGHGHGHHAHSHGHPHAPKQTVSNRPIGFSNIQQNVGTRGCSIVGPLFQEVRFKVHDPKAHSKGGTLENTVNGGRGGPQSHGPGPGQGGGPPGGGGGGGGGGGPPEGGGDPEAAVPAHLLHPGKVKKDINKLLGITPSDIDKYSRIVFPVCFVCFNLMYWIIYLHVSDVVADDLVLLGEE

The target in another assay is T2, RDLT6'V (Drosophila melanogaster, UniProt P25123, T305V).
T2 sequence (P25123 45-606 T305V): T1 sequence (P25123 45-606) with T261V
Put plainly: Two-electrode voltage clamp of RDLT6'V mutant receptors in Xenopus oocytes. The conditions noted are these: inhibition of GABA-activated responses.

In the next assay the target is α1V2'Aβ2γ2 (Homo sapiens, UniProt P14867+P18507+P47870, V284A). The following applies: inhibition of GABA EC50 response.
In assay [1] the target is T3, human α1β2 GABAA receptors (Homo sapiens, UniProt P14867+P47870).
T3 sequence (P14867 28-456): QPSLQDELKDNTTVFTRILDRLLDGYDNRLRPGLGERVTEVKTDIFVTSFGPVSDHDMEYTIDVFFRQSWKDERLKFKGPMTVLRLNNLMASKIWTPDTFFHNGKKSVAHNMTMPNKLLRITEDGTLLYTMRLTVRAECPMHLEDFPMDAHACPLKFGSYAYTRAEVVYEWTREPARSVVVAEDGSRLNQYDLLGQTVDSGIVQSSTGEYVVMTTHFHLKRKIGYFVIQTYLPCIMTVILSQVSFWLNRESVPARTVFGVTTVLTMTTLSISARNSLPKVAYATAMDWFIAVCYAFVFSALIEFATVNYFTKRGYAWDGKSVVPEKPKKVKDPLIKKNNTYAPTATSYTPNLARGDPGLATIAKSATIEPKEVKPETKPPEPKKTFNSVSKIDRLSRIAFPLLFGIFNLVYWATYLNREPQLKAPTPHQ
T3 sequence (P47870 26-512): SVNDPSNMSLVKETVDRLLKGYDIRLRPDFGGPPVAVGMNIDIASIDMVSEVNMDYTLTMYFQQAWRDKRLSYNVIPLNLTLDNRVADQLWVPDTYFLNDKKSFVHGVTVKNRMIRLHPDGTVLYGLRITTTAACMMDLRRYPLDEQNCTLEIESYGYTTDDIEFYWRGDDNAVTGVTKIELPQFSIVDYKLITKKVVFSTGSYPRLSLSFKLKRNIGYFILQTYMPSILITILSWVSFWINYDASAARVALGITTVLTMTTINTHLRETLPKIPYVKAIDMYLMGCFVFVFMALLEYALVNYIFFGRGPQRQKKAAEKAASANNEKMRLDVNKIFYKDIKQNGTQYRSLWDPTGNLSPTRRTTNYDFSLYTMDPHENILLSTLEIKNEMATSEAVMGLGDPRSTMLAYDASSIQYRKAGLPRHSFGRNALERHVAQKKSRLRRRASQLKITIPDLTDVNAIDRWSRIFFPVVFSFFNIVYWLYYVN
Put plainly: Two-electrode voltage clamp of α1β2 GABAA receptors in Xenopus oocytes. The following applies: inhibition of GABA EC50 response.

The target in a further assay is T4, α1V2'Aβ2 (Homo sapiens, UniProt P14867+P47870, V284A).
T4 sequence (P14867 28-456 V284A): T3 sequence (P14867 28-456) with V257A
T4 sequence (P47870 26-512): T3 sequence (P47870 26-512)
The following applies: inhibition of GABA EC50 response.

Another assay has as its target T5, RDLA2'V (Drosophila melanogaster, UniProt P25123, A301V).
T5 sequence (P25123 45-606 A301V): T1 sequence (P25123 45-606) with A257V
The following applies: inhibition of GABA EC50 response.

A further assay has as its target α1β2γ2 GABAA receptors (Homo sapiens, UniProt P14867+P18507+P47870). Put plainly: Two-electrode voltage clamp of α1β2γ2 GABAA receptors in Xenopus oocytes. The conditions noted are these: inhibition of GABA EC50 response.

Changes are numbered by the printed parent chain.

As a reminder, the IC50 is the point on the concentration scale where inhibition reaches its midpoint. In the case of ginkgolide B [GB], the 50% inhibitory concentration (IC50) was 0.018 µM on RDL; 257 µM against RDLT6'V; 14.8 µM on α1V2'Aβ2γ2; 15.1 µM in assay [1]; 4.68 µM at α1V2'Aβ2; 310 µM at RDLA2'V. For the same substance, at α1β2γ2 GABAA receptors, the IC50 worked out at 115 µM. Moreover, the pIC50 on RDL came out at 7.74 ± 0.03 M; against RDLT6'V (NI = 50% inhibition not reached at 1 mM), 3.59 ± 0.36; against α1V2'Aβ2γ2, 4.83 ± 0.05 M; in assay [1], 4.82 ± 0.04 M; against α1V2'Aβ2, 5.33 ± 0.04 M; on RDLA2'V, 3.51 ± 0.07 M. The same substance had a pIC50 at α1β2γ2 GABAA receptors of 3.94 ± 0.05 M.
